Results from article PMC3866116 (PLoS ONE, 2013).

Experiments:
ISRE-promoter activity = test: ISRE reporter assay in Huh7 OK1 cells; format: cell-based; settings: 48 h of treatment, interferon alpha 2b as positive control
Procedure: Huh7 OK1 cells were transfected with pEF.Rluc.HCV.IRES.Feo or pEF.Rluc.EMCV.IRES.Feo [39]. These transfected cells were seeded at 2×10^4 cells per well in a 48-well plate 24 h before treatment, treated with DMSO or compound 10, and then harvested at 72 h post-treatment. The firefly luciferase activities were measured with a luciferase assay system (Promega). The total protein concentration was measured using the BCA Protein Assay Reagent Kit (Thermo Scientific, Rockford, IL, USA) to normalize luciferase activity. To evaluate the interferon response, Huh7OK1 cells were seeded on a 48 well plate at a density of 2×10^4 cells per well, and transfected with pISRE-TA-Luc (Takara bio, Shiga, Japan) and phRG-TK (Promega). These transfected cells were incubated in the presence of compounds, IFN-α 2b, or DMSO, and then harvested at 48 h post-treatment. The firefly luciferase and Renilla luciferase activities were quantified by using Dual luciferase reporter assay system (Promega).

[1] = tested on: HCV subgenomic replicon RNA of genotype 1b strain Con1; test: Drug combination analysis (CalcuSyn) in Con1 LUN Sb #26 replicon cells; format: cell-based, hepatitis C virus; settings: 72 h
Procedure: The replicon cells were seeded at 2×10^4 cells per well in a 48-well plate 24 h before treatment. […] The resulting cells were harvested 72 h post-treatment and lysed with cell culture lysis reagent (Promega, Madison, WI). The luciferase activity of each cell lysate was estimated using a luciferase assay system (Promega). The resulting luminescence was detected by a Luminescencer-JNR AB-2100 (ATTO, Tokyo, Japan).
The effects of drug-drug combinations were evaluated by using the Con1 LUN Sb #26 replicon cells, and were analyzed by using the computer software CalcuSyn (Biosoft, Cambridge, United Kingdom). Dose inhibition curves of two different drugs were plotted with each other. In each drug combination, EC90 values of several combinations of two different drugs were plotted as the fractional concentration (FC) of both drugs on the x and y-axes. Additivity indicates the line linked between 1.0 FC value points of both drugs in the absence of each other. Synergy and antagonism are indicated by values plotted under and above, respectively, an additivity line. The explanatory diagram of isobologram is shown in a right end of lower panels of Figure 5A. Combination indexes (CIs) were calculated at the EC50, EC75, and EC90 by using CalcuSyn. A CI value of less than 0.9 indicates synergy. A CI value ranging from 0.9 to 1.1 indicates additivity. A CI value of more than 1.1 indicates antagonism. […]

interferon alpha 2b: Interferon alfa-2b (IFN-α 2b) obtained from MSD; positive control and combination partner
effect on ISRE-promoter activities (ISRE-promoter activity): significantly enhanced
effect of combination with compound 10 on inhibition of HCV replication (combination index at EC50, EC75, EC90) ([1]; CI <0.9 synergy, 0.9 to 1.1 additivity, >1.1 antagonism): antagonistic to synergistic effect
isobologram: location of calculated EC90 plots for combination with compound 10 ([1]; under additive line = synergy, above = antagonism): under the additive line
